Five compounds from patent US20200316100A1, “HALOALKYL FUCOSE-CONTAINING SELECTIN ANTAGONISTS” (GlycoMimetics, Inc., priority 2016, published 2020) can be followed below.

Sequences of proteins named here, by UniProt entry; tags and fusion partners are left off. Residues count along the entry.
UniProt P16581, 22-301 limits assumed: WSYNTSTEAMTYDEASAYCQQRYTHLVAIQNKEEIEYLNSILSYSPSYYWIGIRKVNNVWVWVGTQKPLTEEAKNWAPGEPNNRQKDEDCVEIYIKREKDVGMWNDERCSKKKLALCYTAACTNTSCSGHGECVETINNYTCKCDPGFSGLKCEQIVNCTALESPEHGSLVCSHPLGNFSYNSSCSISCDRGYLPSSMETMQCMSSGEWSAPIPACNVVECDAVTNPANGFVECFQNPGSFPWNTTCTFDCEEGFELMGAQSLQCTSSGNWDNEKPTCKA

In the test the target is E-selectinLEC2 (Homo sapiens, UniProt P16581). Nature of the test: E-Selectin Activity - Binding Assay (MST, Monolith NT.115). Particulars: read-out: KD MST, 298 K, E-selectinLEC2 0.1 μM, buffer A pH 7.4 with 0.1% Tween 20, every measurement conducted once, single site binding fit. The procedure:
The E-selectinLEC2, construct was expressed and purified according to Preston et al., J. Mol. Cell Biol. (2015). The labeling procedure was performed by blocking the binding site with an excess of a suitable ligand to prevent the dye from reacting in the binding site. Subsequently the amine reactive protein labeling kit BLUE-NHS (Nanotemper Technologies GmbH, Munich, Germany) according to the protocol of the manufacturer. Unreacted dye was removed by dialysis against buffer A (10 mM HEPES, 150 mM NaCl, 1 mM CaCl2, pH 7.4) using a Slide-A-Lyzer Dialysis cassette with 10 kDa cut-off (Thermo Scientific, Rockford, Ill., USA).
MEASUEMENT: All experiments were carried out using a Monolith™NT.115 device Nanoternper Technologies GmbH, Munich, Germany) at 298 K with 50% LED power, 30% laser power, initial delay of 5 seconds, laser on time of 30 seconds, and laser off time of 5 seconds with standard treated capillaries. Throughout all experiments the E-selectinLEC2 concentration was 0.1 μM. As starting point for the dilution series the concentration 30 times higher than the estimated KD was chosen. The compounds were diluted 1:1 with buffer A supplemented with 0.1% (v/v) Tween 20.
DATA ANALYSIS: Every measurement was conducted once. Data points were normalized using the bound and unbound borders calculated by NanoTemper Analysis 1.2.205 software (NanoTemper Technologies GmbH, Munich, Germany) and analyzed with GraphPad Prism 5.0 (GraphPad Software, La Jolla, Calif., USA). To evaluate the KD of the compounds the measurements were globally fitted using equation (1) for single site binding. A. Cooper, Biophysical Chemistry, Royal Society of Chemistry, Cambridge, 2004, Ed 1, 109-10. Equation 1 is: […]
where [PL] is the protein-ligand complex concentration and KD is the dissociation constant. CP represents the total concentration of protein and CL the total concentration of ligand.

pKd: −log10 of the molar value. Read-outs that look alike come from different tables or passages of the source.

The term pKd denotes −log10 of the Kd, conventionally taken in molar units.

`CC[C@H]1CCC[C@@H](O[C@@H]2O[C@H](CO)[C@H](O)[C@H](O[C@@H](CC(C)C)C(=O)N3CCC3)[C@H]2Cl)[C@@H]1O[C@@H]1O[C@@H](C(F)(F)F)[C@@H](O)[C@@H](O)[C@@H]1O`: the pKd was 6.22.
On the same count and under the same terms, the value for `CC[C@H]1CCC[C@@H](O[C@@H]2O[C@H](CO)[C@H](O)[C@H](O[C@@H](CC3CCCCC3)C(=O)N3CCC3)[C@H]2OC(C)=O)[C@@H]1O[C@@H]1O[C@@H](C(F)(F)F)[C@@H](O)[C@@H](O)[C@@H]1O` was 6.52; that for `CC[C@H]1CCC[C@@H](O[C@@H]2O[C@H](CO)[C@H](O)[C@H](O[C@@H](CC3CCCCC3)C(=O)N3CCC3)[C@H]2O)[C@@H]1O[C@@H]1O[C@@H](C(F)(F)F)[C@@H](O)[C@@H](O)[C@@H]1O` was 6.15.
Regarding `C[C@@H](O[C@@H]1O[C@@H](C(F)(F)F)[C@@H](O)[C@@H](O)[C@@H]1O)[C@@H](C)O[C@@H]1O[C@H](CO)[C@H](O)[C@H](O[C@@H](CC2CCCCC2)C(=O)O)[C@H]1O`, where the note is “tested form: Na salt”, the pKd is 4.25.
`CC[C@H]1CCC[C@@H](O[C@@H]2O[C@H](CO)[C@H](O)[C@H](O[C@@H](CC3CCCCC3)C(=O)N3CC(F)(F)C3)[C@H]2OC(=O)c2ccccc2)[C@@H]1O[C@@H]1O[C@@H](C(F)(F)F)[C@@H](O)[C@@H](O)[C@@H]1O`: the pKd is over 6.00.
